Measured values: patent US11608338B2, “Imidazolonylquinolines and the use thereof as ATM kinase inhibitors” (priority 2015, dated 2023)

Columns and labels:
Assay type in all cases: biochemical
[1] = molecular target: PI3K p110α/p85α (human) (Homo sapiens (Human), UniProt P42336); assay: PI3K p110α/p85α (human), non-radioactive assay (HTRF); settings: ATM versus PI3Kalpha
Protocol: PI3K p110α/p85α (Human), Non-Radioactive Assay
(§1) PI3K p110α/p85α (human) was incubated in an assay buffer comprising 10 μM phosphatidylinositol 4,5-bisphosphate and MgATP (concentration as necessary). The reaction was initiated by addition of MgATP solution. After incubation at room temperature for 40 minutes, the reaction was stopped by addition of a solution consisting of EDTA and biotinylated phosphatidylinositol 3,4,5-trisphosphate. Finally, the detection buffer, consisting of a europium-labelled anti-GST monoclonal antibody, a GST-labelled GRP1 PH domain and streptavidin allophycocyanin, was added. The plate was read out via homogeneous time-resolved fluorescence (HTRF) and the corresponding signals were evaluated via the formula HTRF=10000×(Em665 nm/Em620 nm).

[2] = molecular target: PI3K (p120γ) (human) (Homo sapiens (Human), UniProt P48736); assay: PI3K (p120γ) (human), non-radioactive assay (HTRF); settings: ATM versus PI3Kgamma
Protocol: PI3K (p120γ) (Human), Non-Radioactive Assay
as §1, with “(p120γ)” for “p110α/p85α”, “After an” for “After”, “incubation time of 30 min” for “incubation”, “temperature,” for “temperature for 40 minutes,”, “nm). • MgATP=magnesium 5′-O-[hydroxy({[(hydroxyphosphinato)oxy]phosphinato}oxy)phosphoryl]adenosine • MgCl2=magnesium dichloride • EGTA=ethylene glycol bis(aminoethyl ether) N,N,N′,N′-tetraacetic acid • Tween 20=polysorbate 20 Medicament/Pharmaceutical Composition” for “nm).”

[3] = molecular target: PI3K p110δ/p85α (human) (Homo sapiens (Human), UniProt O00329); assay: PI3K p110δ/p85α (human), non-radioactive assay (HTRF); settings: ATM versus PI3Kdelta
Protocol: PI3K p110δ/p85α (Human), Non-Radioactive Assay
as §1, with “p110δ/p85α” for “p110α/p85α”, “After an” for “After”, “incubation time of 30 min” for “incubation”, “temperature,” for “temperature for 40 minutes,”

[4] = molecular target: mTOR (human) (Homo sapiens (Human), UniProt P42345); assay: mTOR (human) radiometric kinase assay; settings: ATM versus mTOR
Protocol: Furthermore, the effect, in particular inhibition, of other kinases and thus the selectivity of the compounds according to the invention can be determined with the aid of the following assay:
mTOR (human) was incubated with 50 mM HEPES pH 7.5, 1 mM EGTA, 0.01% Tween 20, 2 mg/ml of the substrate, 3 mM MnCl2 and [γ-^33P-ATP] (specific activity approximately 500 cpm/pmol, concentration as necessary). The reaction was initiated by addition of MgATP solution. After incubation at room temperature for 40 minutes, the reaction was stopped by addition of 3% phosphoric acid. 10 μl of the reaction solution were then transferred dropwise onto a P30 filtermat and washed three times for 5 min in 75 mM phosphoric acid and once in methanol, dried and evaluated by means of liquid scintillation counting.

[5] = molecular target: PI3K p110β/p85α (human) (Homo sapiens (Human), UniProt P42338); assay: PI3K p110β/p85α (human), non-radioactive assay (HTRF); settings: ATM versus PI3Kbeta
Protocol: PI3K p110β/p85α (Human), Non-Radioactive Assay
as §1, with “p110β/p85α” for “p110α/p85α”, “After an” for “After”, “incubation time of 30 min” for “incubation”, “temperature,” for “temperature for 40 minutes,”

SMILES | ratio of IC50 (ATM) and IC50 (PI3Kalpha), selectivity with respect to PI3Kalpha [1] | ratio of IC50 (ATM) and IC50 (PI3Kgamma), selectivity with respect to PI3Kgamma [2] | ratio of IC50 (ATM) and IC50 (PI3Kdelta), selectivity with respect to PI3Kdelta [3] | ratio IC50 (ATM):IC50 (mTOR), selectivity with respect to mTOR [4] | ratio IC50 (ATM):IC50 (PI3Kbeta), selectivity with respect to PI3Kbeta [5]
COc1cc2ncc3c(c2cc1-c1cnn(C)c1)n(-c1ncc(OCF)cc1F)c(=O)n3C [Example 110, 1-(3-Fluoro-5-fluoro-methoxypyridin-2-yl)-7-methoxy-3-methyl-8-(1-methyl-1H-pyrazol-4-yl)-1,3-dihydroimidazo[4,5-c]-quinolin-2-one] | at least 2000 times | at least 2000 times | at least 2000 times |  | 
COc1cc2ncc3c(c2cc1-c1cn(C)nc1C)n(-c1c(F)cncc1OCF)c(=O)n3C [Example 149, 8-(1,3-Dimethyl-1H-pyrazol-4-yl)-1-(3-fluoro-5-fluoro-methoxypyridin-4-yl)-7-methoxy-3-methyl-1,3-dihydroimidazo[4,5-c]-quinolin-2-one] |  | at least 2000 times |  | at least 2000 times | at least 2000 times
[2H]C([2H])([2H])Oc1cnc(-n2c(=O)n(C)c3cnc4cc(OC)c(-c5cnn(C)c5)cc4c32)c(F)c1 [Example 155, 1-[3-Fluoro-5-(trideuterio-methoxy)-2-pyridyl]-7-methoxy-3-methyl-8-(1-methylpyrazol-4-yl) imidazo-[4,5-c]quinolin-2-one] | at least 2000 times | at least 2000 times | at least 2000 times |  | 

More lines, now with the values ahead:

ratio of IC50 (ATM) and IC50 (PI3Kalpha), selectivity with respect to PI3Kalpha [1] | ratio of IC50 (ATM) and IC50 (PI3Kgamma), selectivity with respect to PI3Kgamma [2] | ratio of IC50 (ATM) and IC50 (PI3Kdelta), selectivity with respect to PI3Kdelta [3] | ratio IC50 (ATM):IC50 (mTOR), selectivity with respect to mTOR [4] | ratio IC50 (ATM):IC50 (PI3Kbeta), selectivity with respect to PI3Kbeta [5] | SMILES
at least 2000 times | at least 2000 times | at least 2000 times |  |  | COc1cnc(-n2c(=O)n(C)c3cnc4cc(OC)c(-c5cnn(C)c5)cc4c32)c(F)c1 [Example 105, 1-(3-Fluoro-5-methoxy-pyridin-2-yl)-7-methoxy-3-methyl-8-(1-methyl-1H-pyrazol-4-yl)-1,3-dihydro-imidazo[4,5-c]quinolin-2-one]
 |  |  | at least 2000 times | at least 2000 times | COc1cc2ncc3c(c2cc1-c1cnn(CF)c1)n(-c1c(F)cncc1OC)c(=O)n3C [Example 140, 1-(3-Fluoro-5-methoxy-pyridin-4-yl)-8-(1-fluoro-methyl-1H-pyrazol-4-yl)-7-methoxy-3-methyl-1,3-dihydroimidazo[4,5-c]-quinolin-2-one]
